Assay results published in patent US6262116A, “Transcription therapy for cancers” (Sloan-Kettering Institute for Cancer Research, priority 1998, dated 2001).

Tests used:
[1] = system: PLZF-retinoic acid receptor-α bone marrow leukaemic cells; test: Myeloid differentiation (NBT assay) of PLZF-RARα bone marrow leukaemic cells; type: cell-based, mouse; settings: retinoic acid 10^-7 M and 10^-6 M
Experimental: Myeloid differentiation was evaluated by performing the nitroblue tetrazolium (NBT) assay, and cell proliferation by measuring DNA synthesis quantitating incorporation of ^3 H-thymidine.
(§1) Differentiation was evaluated performing the nitroblue tetrazolium (NBT) assay and morphological differential count^32. Proliferation of bone marrow cells was evaluated by measuring DNA synthesis quantitating incorporation of ^3 H-thymidine (Amersham). Bone marrow cells were plated at a density of 2×10^6 cells/ml and were pulsed with ^3 H-thymidine at a final concentration of […].

[2] = system: NB4 cells; test: NB4 cell proliferation (3H-thymidine incorporation); type: cell-based, human; settings: all-trans retinoic acid alone
Experimental: (§2) NB4 cells, a line that stably carries the PML/RAR-α fusion protein of acute promyelocytic leukemia^71, were maintained in RPMI1640 medium, which was supplemented with 10% fetal bovine serum and 1% of penicillin-streptomycin, at 37° C. in 5% CO2 atmosphere. Cultures were established at an initial density of 10^5 cells/ml in the presence or absence of drugs at various concentrations. Cellular proliferation was measured by assessment of ^3 H-thymidine incorporation. Aliquots (180 μl) from each culture were placed into 96-well plates in triplicate after 20 hrs of incubation, and 0.5 μCi of ^3 H-thymidine in 20 μl of medium was added to each well. […] The proportion of cells undergoing apoptosis was determined by Annexin V staining^72. […] Annexin V and propidium iodide positivity were analyzed by flow cytometry (Becton-Dickinson, Mountainview, Calif.). Cell viability was measured after 4 days of incubation by using trypan blue exclusion. Cellular differentiation was evaluated at day 4 of incubation using both an assay for nitroblue tetrazolium (NBT) reduction and expression of CD11b (a cell surface differentiation antigen)^73. […] Expression of CD11b, including percentage of positive cells and the fluorescence intensity, was determined by using flow cytometry (Becton Dickinson).

[3] = system: human APL patients harboring t(11;17); settings: upon retinoic acid treatment; cited from earlier work
[4] = system: promyelocytic leukaemia-retinoic acid receptor-α leukaemia
[5] = system: PML-retinoic acid receptor-α fusion protein / SMRT
[6] = system: PLZF-retinoic acid receptor-α; test: 3XRARE-Luc reporter transfection assay in 293T cells, PLZF-RARα; type: cell-based, human
Experimental: (§3) The experiment was performed in medium reconstituted with serum not depleted of endogenous retinoids. Luciferase activity was measured in a scintillation counter and normalized with the internal β-galactosidase standard. […] Note that in panels A and B luciferase activity is expressed by different scales.
(§4) Luciferase activity was normalized with the internal β-galactosidase standard. Values represent the averages of two independent transfections.
(§5) 293T cells and KG1 cells were transfected by calcium phosphate precipitation, and by electroporation as already described^25, and luciferase activity of each sample was normalized against internal control β-galactosidase activity^25.
(§6) Nuclear receptor co-repressors form complexes with histone deacetylases (HDAC1 or 2), resulting in nucleosome assembly and transcriptional repression^15.

[7] = system: human APL patients harboring t(15;17); settings: retinoic acid treatment not accompanied by chemotherapy; cited from earlier work
[8] = system: PLZF-retinoic acid receptor-α leukaemia
[9] = system: PLZF-retinoic acid receptor-α/SMRT co-repressor complex
[10] = system: NB4 cells; test: NB4 cell differentiation (CD11b expression and NBT reduction); type: cell-based, human; settings: all-trans retinoic acid alone, 4 days
Experimental: as §2

[11] = system: blasts from both X-retinoic acid receptor-α leukaemias
Experimental: as §1

[12] = system: PML/RAR-α mSin-3/N-CoR/HDAC complex; settings: all-trans retinoic acid alone, in vitro; cited from earlier work
[13] = system: NB4 cells; test: NB4 cell apoptosis (Annexin V flow cytometry); type: cell-based, human; settings: all-trans retinoic acid alone, 2 days
Experimental: as §2

[14] = system: PML-retinoic acid receptor-α; test: 3XRARE-Luc reporter transfection assay in 293T cells, PML-RARα; type: cell-based, human
Experimental: as §3, §4, §5, §6

[15] = system: acute promyelocytic leukemia
[16] = system: acute promyelocytic leukemia; type: in vivo, human
Description: The patient used for clinical study is a person who was diagnosed with acute promyelocytic leukemia in 1994.

[17] = system: acute promyelocytic leukemia; settings: similar highly resistant patients; cited from earlier work
[18] = retinoic acid per os daily, 1.5 mg per gram of mouse body weight
[19] = retinoic acid treated, untreated mice died within 4 weeks

## CC1=C(/C=C/C(C)=C/C=C/C(C)=C/C(=O)O)C(C)(C)CCC1 [retinoic acid, all-trans-retinoic acid]
[1]
  differentiation: little if no effects
[1]; listed as Retinoic acid
  differentiation: minimal
[2]
  proliferation: inhibition of proliferation
[3]
  complete remission: never achieved complete remission
[4]; continued retinoic acid treatment, also at five fold higher doses
  relapse and resistance after remission: relapsed shortly after remission was achieved, were refractory to further retinoic acid treatment
[4]; peripheral blood, weekly counts, retinoic acid 1.5 mg per gram daily
  white blood cell count kinetics: dramatic increase of white blood cells upon the first week of treatment followed by a decrease to normal values by the second and third week of treatment
[4]; [18]
  remission rate (RR), complete clinical remission: 80%
  time to remission: remission was obtained by week three
[4]; [19]
  survival from diagnosis: up to eight week from diagnosis
[5]
  co-immunoprecipitation of endogenous SMRT: not with the wild-type retinoic acid receptor-α or PML-retinoic acid receptor-α fusion protein
[6]
  transactivation of reporter / relief of transcriptional repression: but not PLZF-retinoic acid receptor-α transcriptional repression; also recorded: negligible
[7]
  resistance to retinoic acid: invariably occurred
[8]; after one week of retinoic acid treatment, 1.5 mg per gram daily
  white blood cell count: increase of white blood cells
[8]; high dose retinoic acid, 7.5 mg per gram body weight daily
  leukaemias in remission by the third week of treatment: three out of four
[8]; high dose retinoic acid, 7.5 mg per gram body weight, daily intraperitoneal injections
  remission rate (RR), clinical remission: 75%
[8]; [19]
  survival from diagnosis: up to eight week from diagnosis
[9]
  co-immunoprecipitation of endogenous SMRT: endogenous SMRT co-immunoprecipitated only with the PLZF-retinoic acid receptor-α chimeric protein
  dissociation of co-repressor complex: could dissociate, albeit not completely
[10]
  differentiation: dose-dependent induction of differentiation
[11]
  differentiation in vitro: induced differentiation in vitro
  growth of blasts: inhibited the growth of blasts
[12]
  displacement of the repressor complex: displaced the repressor complex in retinoid-sensitive but not retinoid-resistant NB4 cells
[13]
  induction of apoptosis: relatively little effect upon induction of apoptosis
[14]
  transactivation of reporter / relief of transcriptional repression: can partially overcome; also recorded: can stimulate the transactivation of the reporter gene
[15]; after 11 days of all-trans retinoic acid alone
  repeat bone marrow: showed no improvement
[15]; during treatment with all-trans retinoic acid alone
  peripheral blood leukocyte count: absence of change
[16]; Apr. `98, after relapse
  Response: Progression
[16]; Nov. `94
  Response: Complete remission
[16]; Nov. `95, after relapse
  Response: Complete remission
[16]; Oct. `97, after relapse
  Response: Progression
[17]
  plasma concentration and clinical response on increasing the dose: neither increases the plasma concentration nor recaptures the clinical response

“Also recorded” adds a separate entry of the source. Like-named read-outs stand apart in the source and are kept apart here.
